Test results: patent US11186582B2, “Substituted [1,2,4]triazolo[1,5-a]pyrimidin-7-yl compounds as PDE2 inhibitors” (DART NEUROSCIENCE (CAYMAN) LTD., priority 2014, dated 2021)

By UniProt entry, the sequences of proteins in these tests, tags left out. Residues count along the entry.
UniProt O00408, 2-941: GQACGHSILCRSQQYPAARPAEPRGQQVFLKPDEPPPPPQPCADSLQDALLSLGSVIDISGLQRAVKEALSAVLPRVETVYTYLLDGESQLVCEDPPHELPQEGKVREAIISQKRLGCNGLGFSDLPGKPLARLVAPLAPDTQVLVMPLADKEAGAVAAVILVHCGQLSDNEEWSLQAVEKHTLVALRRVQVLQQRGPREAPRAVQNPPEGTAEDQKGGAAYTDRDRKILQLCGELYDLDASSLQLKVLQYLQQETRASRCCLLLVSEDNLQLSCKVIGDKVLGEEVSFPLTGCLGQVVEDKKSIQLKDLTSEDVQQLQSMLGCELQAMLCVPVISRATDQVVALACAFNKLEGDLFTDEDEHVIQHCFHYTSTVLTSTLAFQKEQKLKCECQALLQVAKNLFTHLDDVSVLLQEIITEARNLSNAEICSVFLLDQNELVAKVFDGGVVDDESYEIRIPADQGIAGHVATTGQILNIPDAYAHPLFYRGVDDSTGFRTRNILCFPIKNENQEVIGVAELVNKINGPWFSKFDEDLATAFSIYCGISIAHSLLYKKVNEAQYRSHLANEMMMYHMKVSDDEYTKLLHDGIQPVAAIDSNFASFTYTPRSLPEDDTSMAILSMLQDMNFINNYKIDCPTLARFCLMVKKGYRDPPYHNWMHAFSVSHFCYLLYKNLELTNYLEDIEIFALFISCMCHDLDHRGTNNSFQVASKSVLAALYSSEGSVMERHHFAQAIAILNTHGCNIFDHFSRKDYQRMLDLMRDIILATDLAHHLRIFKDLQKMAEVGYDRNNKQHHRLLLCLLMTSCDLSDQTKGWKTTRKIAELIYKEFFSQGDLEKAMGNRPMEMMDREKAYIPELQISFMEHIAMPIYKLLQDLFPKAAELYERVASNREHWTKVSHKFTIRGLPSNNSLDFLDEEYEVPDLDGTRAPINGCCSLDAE

Each molecule was assayed against FLAG-tagged PDE2A1 (amino acids 2-941) (Homo sapiens (Human), UniProt O00408) (assay: IMAP TR-FRET PDE2A phosphodiesterase enzymatic assay). Details: not given.

| SMILES | IC50 [nM] |
| --- | --- |
| Cc1cc(C2CCCN(C(=O)c3ccnc4ccccc34)C2)n2ncnc2n1 (stereo not drawn) [Example 7, (3-(5-Methyl-[1,2,4]triazolo[1,5-a]pyrimidin-7-yl)piperidin-1-yl)(quinolin-4-yl)methanone] | 100 to 1000 |
| Cc1cc(C2CCCN(Cc3ccc(C)c(Cl)c3)C2)n2ncnc2n1 (stereo not drawn) [Example 110, 1-[(3-Chloro-4-methylphenyl)methyl]-3-{5-methyl-[1,2,4]triazolo[1,5-a]pyrimidin-7-yl}piperidine] | 100 to 1000 |
| Cc1cc(C2CCCN(C(=O)C3Cc4ccccc4O3)C2)n2ncnc2n1 (stereo not drawn) [Example 351, 1-[(2,3-Dihydro-1-benzofuran-2-yl)carbonyl]-3-{5-methyl-[1,2,4]triazolo[1,5-a]pyrimidin-7-yl}piperidine] | 100 to 1000 |
| COc1cccc(CN2CCCC(c3cc(C)nc4ncnn34)C2)c1 (stereo not drawn) [Example 88, 1-[(3-Methoxyphenyl)methyl]-3-{5-methyl-[1,2,4]triazolo[1,5-a]pyrimidin-7-yl}piperidine] | 1000 to 10000 |
| Cc1cc(C2CCCN(C(=O)c3ccc(Cl)cc3Cl)C2)n2ncnc2n1 (stereo not drawn) [Example 436, 1-[(2,4-Dichlorophenyl)carbonyl]-3-{5-methyl-[1,2,4]triazolo[1,5-a]pyrimidin-7-yl}piperidine] | 100 to 1000 |
| Cc1cc(C2CCCN(Cc3ccc(Br)cc3)C2)n2ncnc2n1 (stereo not drawn) [Example 143, 1-[(4-Bromophenyl)methyl]-3-{5-methyl-[1,2,4]triazolo[1,5-a]pyrimidin-7-yl}piperidine] | 100 to 1000 |
| Cc1cc(C2CCCN(Cc3ccc(Br)cn3)C2)n2ncnc2n1 (stereo not drawn) [Example 135, 5-bromo-2-[(3-{5-Methyl-[1,2,4]triazolo[1,5-a]pyrimidin-7-yl}piperidin-1-yl)methyl]pyridine] | 100 to 1000 |
| Cc1cc(C2CCCN(C(=O)c3ccc(F)cc3F)C2)n2ncnc2n1 (stereo not drawn) [Example 485, 1-[(2,4-Difluorophenyl)carbonyl]-3-{5-methyl-[1,2,4]triazolo[1,5-a]pyrimidin-7-yl}piperidine] | 1000 to 10000 |
| Cc1cc(C2CCCN(C(=O)c3cccnc3C)C2)n2ncnc2n1 (stereo not drawn) [Example 400, 2-Methyl-3-[(3-{5-methyl-[1,2,4]triazolo[1,5-a]pyrimidin-7-yl}piperidin-1-yl)carbonyl]pyridine] | > 10000 |
| COc1cc(CN2CCCC(c3cc(C)nc4ncnn34)C2)ccc1F (stereo not drawn) [Example 117, 1-[(4-Fluoro-3-methoxyphenyl)methyl]-3-{5-methyl-[1,2,4]triazolo[1,5-a]pyrimidin-7-yl}piperidine] | 1000 to 10000 |
| Cc1cc(C2CCCN(Cc3ccc(Cl)cc3C)C2)n2ncnc2n1 (stereo not drawn) [Example 42, 1-[(4-Chloro-2-methylphenyl)methyl]-3-{5-methyl-[1,2,4]triazolo[1,5-a]pyrimidin-7-yl}piperidine] | > 10000 |
| Cc1cc(C2CN(C(=O)c3ccc(C(F)F)cc3)CCO2)n2ncnc2n1 (stereo not drawn) [Example 543, 4-[4-(Difluoromethyl)benzoyl]-2-{5-methyl-[1,2,4]triazolo[1,5-a]pyrimidin-7-yl}morpholine] | > 10000 |
| Cc1cc(C2CN(C(=O)c3ncc(F)cc3F)CCO2)n2ncnc2n1 (stereo not drawn) [Example 361, 4-[(3,5-Difluoropyridin-2-yl)carbonyl]-2-{5-methyl-[1,2,4]triazolo[1,5-a]pyrimidin-7-yl}morpholine] | > 10000 |
| COc1ccc(C)cc1C(=O)N1CCCC(c2cc(C)nc3ncnn23)C1 (stereo not drawn) [Example 410, 1-[(2-Methoxy-5-methylphenyl)carbonyl]-3-{5-methyl-[1,2,4]triazolo[1,5-a]pyrimidin-7-yl}piperidine] | 100 to 1000 |

Same assay, conditions: IMAP TR-FRET, 200 nM FAM-cAMP substrate, 11-point half-log dose-response

| SMILES | PDE2 (pIC50) |
| --- | --- |
| Cc1cc(C2CN(C(=O)c3cc(Br)cc(C(F)(F)F)c3)CC(F)(F)C2)n2ncnc2n1 (stereo not drawn) [Example 304, 1-[3-Bromo-5-(trifluoromethyl)benzoyl]-3,3-difluoro-5-{5-methyl-[1,2,4]triazolo[1,5-a]pyrimidin-7-yl}piperidine] | >7 |
| Cc1cc([C@@H]2CN(C(=O)c3ccc(Br)c(Cl)c3)CCO2)n2ncnc2n1 [Example 329, (2S)-4-(4-Bromo-3-chlorobenzoyl)-2-{5-methyl-[1,2,4]triazolo[1,5-a]pyrimidin-7-yl}morpholine] | >7 |
| Cc1cc([C@@H]2CN(C(=O)c3cccc(C4CC4)c3)CCO2)n2ncnc2n1 [Example 316, (2S)-4-(3-Cyclopropylbenzoyl)-2-{5-methyl-[1,2,4]triazolo[1,5-a]pyrimidin-7-yl}morpholine] | >7 |
| Cc1cc(C2CN(C(=O)c3cc(Cl)ccc3F)CC(F)(F)C2)n2ncnc2n1 (stereo not drawn) [Example 514, 1-(5-Chloro-2-fluorobenzoyl)-3,3-difluoro-5-{5-methyl-[1,2,4]triazolo[1,5-a]pyrimidin-7-yl}piperidine] | >7 |
| Cc1cc(C2CN(C(=O)c3ccc4cnccc4c3)CCO2)n2ncnc2n1 (stereo not drawn) [Example 296, 6-[(2-{5-Methyl-[1,2,4]triazolo[1,5-a]pyrimidin-7-yl}morpholin-4-yl)carbonyl]isoquinoline] | >7 |
| Cc1cc([C@@H]2CN(C(=O)c3cc(F)c(F)c(C4CC4)c3)CC(F)(F)C2)n2ncnc2n1 [Example 283, (5S)-1-(3-Cyclopropyl-4,5-difluorobenzoyl)-3,3-difluoro-5-{5-methyl-[1,2,4]triazolo[1,5-a]pyrimidin-7-yl}piperidine] | >7 |
| Cc1cc([C@H]2CN(C(=O)c3cc(Br)cc(Br)c3)CC(F)(F)C2)n2ncnc2n1 [Example 274, (5R)-1-(3,5-Dibromobenzoyl)-3,3-difluoro-5-{5-methyl-[1,2,4]triazolo[1,5-a]pyrimidin-7-yl}piperidine] | >7 |
| Cc1cc(C2CN(C(=O)c3cc(-c4ccccc4)nn3C)CC(F)(F)C2)n2ncnc2n1 (stereo not drawn) [Example 527, 3,3-Difluoro-1-(1-methyl-3-phenyl-1H-pyrazole-5-carbonyl)-5-{5-methyl-[1,2,4]triazolo[1,5-a]pyrimidin-7-yl}piperidine] | >7 |
| Cc1cc(C2CN(C(=O)c3ccn(-c4cccc(F)c4)n3)CCO2)n2ncnc2n1 (stereo not drawn) [Example 384, 4-[1-(3-Fluorophenyl)-1H-pyrazole-3-carbonyl]-2-{5-methyl-[1,2,4]triazolo[1,5-a]pyrimidin-7-yl}morpholine] | >7 |
| Cc1cc([C@@H]2CN(C(=O)c3ccc(C4CC4)c(F)c3)CC(F)(F)C2)n2ncnc2n1 [Example 321, (5S)-1-(4-Cyclopropyl-3-fluorobenzoyl)-3,3-difluoro-5-{5-methyl-[1,2,4]triazolo[1,5-a]pyrimidin-7-yl}piperidine] | >7 |
| Cc1cc(C2CN(C(=O)c3cc(Cl)cc(Br)c3)CC(F)(F)C2)n2ncnc2n1 (stereo not drawn) [Example 292, 1-[(3-Bromo-5-chlorophenyl)carbonyl]-3,3-difluoro-5-{5-methyl-[1,2,4]triazolo[1,5-a]pyrimidin-7-yl}piperidine] | >7 |
| Cc1cc([C@@H]2CN(C(=O)c3cc(F)cc(Br)c3)CCO2)n2ncnc2n1 [Example 279, (2S)-4-(3-Bromo-5-fluorobenzoyl)-2-{5-methyl-[1,2,4]triazolo[1,5-a]pyrimidin-7-yl}morpholine] | >7 |
| Cc1cc([C@@H]2CCCN(Cc3cc(F)c(Cl)c(F)c3)C2)n2ncnc2n1 [Example 184, (3R)-1-[(4-Chloro-3,5-difluorophenyl)methyl]-3-{5-methyl-[1,2,4]triazolo[1,5-a]pyrimidin-7-yl}piperidine] | >7 |
